Measurements from patent publication US7267949B2, “Composition comprising methylphenidate and another drug” (Celltech Pharma Europe Limited, priority 1995, dated 2007).

Protein sequences, listed by entry. Tags and fused reporters are not part of them.
UniProt P11712, whole entry: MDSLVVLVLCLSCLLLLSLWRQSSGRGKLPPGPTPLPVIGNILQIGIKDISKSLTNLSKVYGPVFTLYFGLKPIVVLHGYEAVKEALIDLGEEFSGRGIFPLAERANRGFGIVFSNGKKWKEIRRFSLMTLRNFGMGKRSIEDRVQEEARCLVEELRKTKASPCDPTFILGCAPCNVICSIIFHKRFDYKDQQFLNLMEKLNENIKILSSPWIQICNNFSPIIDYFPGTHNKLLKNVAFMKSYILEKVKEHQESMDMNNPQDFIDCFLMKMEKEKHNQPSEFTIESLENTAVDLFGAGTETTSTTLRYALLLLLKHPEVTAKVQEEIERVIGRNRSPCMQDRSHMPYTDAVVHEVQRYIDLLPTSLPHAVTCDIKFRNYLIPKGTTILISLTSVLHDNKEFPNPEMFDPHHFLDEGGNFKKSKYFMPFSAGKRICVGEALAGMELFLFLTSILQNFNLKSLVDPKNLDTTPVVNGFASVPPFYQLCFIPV

Molecular target: P450 Isozyme 2C9 (Homo sapiens, UniProt P11712)
Assay: Tolbutamide hydroxylase activity in human microsome preparations
Details: standard inhibitor at 100 μM, human microsomes

- % Inhibition of Enzyme Activity (Tolbutamide hydroxylase, 2C9): >90%
Substance: Sulphaphenazole
